Data as given in ChEMBL document CHEMBL1156989, “Discovery of novel small molecule orally bioavailable C-X-C chemokine receptor 4 antagonists that are potent inhibitors of T-tropic (X4) HIV-1 replication” (J Med Chem, 2010).

The chains behind the UniProt entries cited, without tags or fusion partners.
UniProt P61073, whole entry: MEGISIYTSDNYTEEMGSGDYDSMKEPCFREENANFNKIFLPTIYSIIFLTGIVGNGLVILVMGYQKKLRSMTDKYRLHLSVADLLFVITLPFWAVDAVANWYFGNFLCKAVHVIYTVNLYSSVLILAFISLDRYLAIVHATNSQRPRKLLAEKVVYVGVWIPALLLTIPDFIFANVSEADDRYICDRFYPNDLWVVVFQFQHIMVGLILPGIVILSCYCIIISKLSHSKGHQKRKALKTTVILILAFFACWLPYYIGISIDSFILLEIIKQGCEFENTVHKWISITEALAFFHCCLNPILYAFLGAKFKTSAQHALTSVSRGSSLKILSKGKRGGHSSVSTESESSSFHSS

Target: C-X-C chemokine receptor type 4 (Homo sapiens, UniProt P61073)
Assay: Antagonist activity at CXCR4 in human CEM-CCRF cells assessed as inhibition of SDF-1-induced calcium flux
Format: functional, cell-based

For `NCCCCN(Cc1nc2ccccc2[nH]1)C1CCCc2cccnc21` (stereo unspecified), the IC50 was 11 nM.
